According to ChEMBL document CHEMBL5500416, “Development of a Potent and Selective G2A (GPR132) Agonist” (J Med Chem, 2024):

Target: T1, Probable G-protein coupled receptor 132 (Mus musculus) (UniProt Q9Z282)
T1 sequence (whole entry): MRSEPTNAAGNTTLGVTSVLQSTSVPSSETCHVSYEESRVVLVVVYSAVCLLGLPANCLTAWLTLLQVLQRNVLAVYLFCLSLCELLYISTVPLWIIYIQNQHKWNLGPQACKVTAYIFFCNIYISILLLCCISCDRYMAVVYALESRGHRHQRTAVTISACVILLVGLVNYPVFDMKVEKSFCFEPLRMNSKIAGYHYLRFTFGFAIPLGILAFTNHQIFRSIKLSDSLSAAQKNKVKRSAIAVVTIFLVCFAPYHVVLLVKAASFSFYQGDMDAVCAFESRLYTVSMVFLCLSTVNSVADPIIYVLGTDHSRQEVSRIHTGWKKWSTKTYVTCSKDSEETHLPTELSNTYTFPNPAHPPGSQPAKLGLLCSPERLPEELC
Experiment: Agonist activity at G2A in capsaicin-induced mouse primary sensory neurons assessed as induction of TRPV1 sensitization by measuring increase in amplitude of calcium response at 100 nM preincubated with capsaicin for 30 sec followed by compound administration for 4 mins and measured 30 sec after second capsaicin addition by calcium imaging analysis relative to control
Format: cell-based
Conditions: Primary sensory neuron, filed as agonist, time 4.5 min

O=C(N[C@H](Cc1ccccc1)C(=O)O)c1cccc(OCc2cccnc2)c1 was tested, and the Activity was 244%.
